# In US20220370429A1, “AROMATIC HETEROCYCLIC COMPOUND HAVING TRICYCLIC STRUCTURE, AND PREPARATION METHOD THEREFOR AND APPLICATION THEREOF” (SHANGHAI LONGWOOD BIOPHARMACEUTICALS CO., LTD., priority 2019, published 2022):
# Chains of the proteins cited; added tags and fusions are not shown. Residues count along the entry.
# UniProt Q9NZQ7, 19-238 limits assumed: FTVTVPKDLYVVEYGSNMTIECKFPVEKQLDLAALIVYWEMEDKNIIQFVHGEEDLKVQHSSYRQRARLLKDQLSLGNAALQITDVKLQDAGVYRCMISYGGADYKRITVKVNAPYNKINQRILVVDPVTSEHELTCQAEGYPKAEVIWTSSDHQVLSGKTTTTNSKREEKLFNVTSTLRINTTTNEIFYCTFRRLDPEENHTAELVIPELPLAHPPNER
# Target: PD-1/PD-L1 (Homo sapiens, UniProt Q9NZQ7)
# Test: PD-1/PD-L1 Homogeneous Time-Resolved Fluorescence (HTRF) Binding Assay
# Settings: read-out: PD-1/PD-L1 HTRF IC50, 25° C., PBS pH 7.4, ~3 nM PD1, 10 nM PD-L1
# Method: Example A: PD-1/PD-L1 Homogeneous Time-Resolved Fluorescence (HTRF) Binding Assay
# Assays were performed in standard black 384-well polystyrene plates and a final volume was 20 μL. The inhibitor was first serially diluted with DMSO and added to the wells of the plate, followed by the addition of other reaction components. The final concentration of DMSO in the assay was 1%. Assays were performed at 25° C. in PBS buffer (pH 7.4) containing 0.05% Tween-20 and 0.1% BSA. Recombinant human PD-L1 protein (19-238) with a His-tagged at the C-terminus was purchased from AcroBiosystems (PD1-H5229). Recombinant human PD-1 protein (25-167) with an Fc tag at the C-terminus was also purchased from AcroBiosystems (PD1-H5257). The PD-L1 and PD-1 proteins were diluted in assay buffer and then […] of the solution was extracted and added to the wells of the plate. Plates were centrifuged and proteins and inhibitors were preincubated for 40 minutes. After incubation, 0.1 μl of HTRF detection buffer containing europium […] labeled anti-human IgG (PerkinElmer-AD0212), Fc-specific and anti-His SureLight®-Allophycocyanin (APC, PerkinElmer-AD0059H) conjugated antibodies was added. After centrifugation, the plates were incubated at 25° C. for 60 minutes. Data was read in a PHERAstar FS plate reader (665 nm/620 nm ratio). Final concentrations in the assay were ˜3 nM PD1, 10 nM PD-L1, 1 nM europium anti-human IgG, and 20 nM anti-His-allophycocyanin. Activity data were fitted using GraphPad Prism 5_0 software to derive IC50 values for inhibitors.
row,Compound,pIC50
1,COc1nc(O[C@H]2CCc3c(-c4cccc(-c5nc6cc7c(c(C#N)c6o5)CC[C@H]7N5CC[C@@H](C(=O)NS(C)(=O)=O)C5)c4Cl)cccc32)c(Cl)cc1CN1CC[C@@H](O)C1,> 8.00
2,COc1nc(O[C@H]2CCc3c(-c4cccc(-c5cc6cc7c(c(C#N)c6o5)CC[C@H]7N5CC[C@@H](C(=O)NS(=O)(=O)C6CC6)C5)c4Cl)cccc32)c(Cl)cc1CN1CC2(CCC(=O)N2)C1,> 8.00
3,COc1nc(O[C@H]2CCc3c(-c4cccc(-c5nc6cc7c(c(C#N)c6o5)CC[C@H]7N5CC[C@@H](C(=O)O)C5)c4C)cccc32)c(C(F)F)cc1CN1CC[C@@H](O)C1,> 8.00

# pIC50: −log10 of the molar value.
